SMILES strings stand for the structures.

Amino acid sequences for entries named in this document (tags omitted).
UniProt P35400, whole entry: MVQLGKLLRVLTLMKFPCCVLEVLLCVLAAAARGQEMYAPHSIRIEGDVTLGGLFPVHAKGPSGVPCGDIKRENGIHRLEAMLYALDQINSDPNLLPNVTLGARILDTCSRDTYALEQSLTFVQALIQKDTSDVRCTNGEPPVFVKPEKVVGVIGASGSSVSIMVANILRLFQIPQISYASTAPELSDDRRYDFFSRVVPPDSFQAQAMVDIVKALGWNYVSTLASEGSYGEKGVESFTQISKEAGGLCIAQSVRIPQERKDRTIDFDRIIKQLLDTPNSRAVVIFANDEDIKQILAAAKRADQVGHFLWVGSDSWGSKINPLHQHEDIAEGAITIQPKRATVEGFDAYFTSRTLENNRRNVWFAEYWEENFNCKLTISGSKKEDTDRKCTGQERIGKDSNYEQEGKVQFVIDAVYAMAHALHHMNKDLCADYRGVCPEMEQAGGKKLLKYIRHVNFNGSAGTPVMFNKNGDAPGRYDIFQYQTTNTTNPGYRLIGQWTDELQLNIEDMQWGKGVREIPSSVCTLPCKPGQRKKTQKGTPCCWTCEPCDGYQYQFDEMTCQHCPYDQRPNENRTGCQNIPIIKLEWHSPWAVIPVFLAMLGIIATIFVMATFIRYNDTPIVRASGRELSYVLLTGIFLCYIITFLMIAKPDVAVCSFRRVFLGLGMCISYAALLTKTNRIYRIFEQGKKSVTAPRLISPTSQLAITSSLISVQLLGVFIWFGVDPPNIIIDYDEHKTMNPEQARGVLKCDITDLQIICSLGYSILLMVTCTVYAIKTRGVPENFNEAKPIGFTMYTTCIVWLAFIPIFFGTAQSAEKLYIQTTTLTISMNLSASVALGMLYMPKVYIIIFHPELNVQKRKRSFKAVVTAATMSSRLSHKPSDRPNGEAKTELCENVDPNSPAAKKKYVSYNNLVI

By EC50 is commonly meant the concentration that produces a half-maximal response. A higher EC50 goes with weaker potency.

For the assay, the target named is Metabotropic glutamate receptor 7 (Rattus norvegicus, UniProt P35400). As to the kind of experiment: Positive allosteric modulation of rat mGluR7.
Consider `COc1cc(F)cc2c(N3CCN4c5c(F)cccc5OC[C@H]4C3)c(C#N)nnc12`, for which the 50% effective concentration (EC50) turned out to be 56 nM. This lies in the double-digit nanomolar range.

`COc1cc(F)cc2c(N3CCN4c5c(F)cccc5OC[C@@H]4C3)c(C#N)nnc12` had an EC50 of 150 nM.

`COc1cc(F)cc2c(N3CCN4c5c(F)cccc5OCC4C3)c(C#N)nnc12` (stereo not drawn): it took 130 nM to reach a half-maximal effect (EC50).

For the origin of these results see ChEMBL document CHEMBL5236641, “Persistent challenges in the development of an mGlu7 PAM in vivo tool compound: The discovery of VU6046980” (Bioorg Med Chem Lett, 2023).
